Among the data in patent EP0973746B1, “SUBSTITUTED 3-CYANO QUINOLINES” (Wyeth Holdings Corporation, priority 1997, dated 1998) are IC50 values, retold here.

Amino acid sequences for entries named in this document (tags omitted). Residues count along the entry.
UniProt P29317, 24-976, species assumed: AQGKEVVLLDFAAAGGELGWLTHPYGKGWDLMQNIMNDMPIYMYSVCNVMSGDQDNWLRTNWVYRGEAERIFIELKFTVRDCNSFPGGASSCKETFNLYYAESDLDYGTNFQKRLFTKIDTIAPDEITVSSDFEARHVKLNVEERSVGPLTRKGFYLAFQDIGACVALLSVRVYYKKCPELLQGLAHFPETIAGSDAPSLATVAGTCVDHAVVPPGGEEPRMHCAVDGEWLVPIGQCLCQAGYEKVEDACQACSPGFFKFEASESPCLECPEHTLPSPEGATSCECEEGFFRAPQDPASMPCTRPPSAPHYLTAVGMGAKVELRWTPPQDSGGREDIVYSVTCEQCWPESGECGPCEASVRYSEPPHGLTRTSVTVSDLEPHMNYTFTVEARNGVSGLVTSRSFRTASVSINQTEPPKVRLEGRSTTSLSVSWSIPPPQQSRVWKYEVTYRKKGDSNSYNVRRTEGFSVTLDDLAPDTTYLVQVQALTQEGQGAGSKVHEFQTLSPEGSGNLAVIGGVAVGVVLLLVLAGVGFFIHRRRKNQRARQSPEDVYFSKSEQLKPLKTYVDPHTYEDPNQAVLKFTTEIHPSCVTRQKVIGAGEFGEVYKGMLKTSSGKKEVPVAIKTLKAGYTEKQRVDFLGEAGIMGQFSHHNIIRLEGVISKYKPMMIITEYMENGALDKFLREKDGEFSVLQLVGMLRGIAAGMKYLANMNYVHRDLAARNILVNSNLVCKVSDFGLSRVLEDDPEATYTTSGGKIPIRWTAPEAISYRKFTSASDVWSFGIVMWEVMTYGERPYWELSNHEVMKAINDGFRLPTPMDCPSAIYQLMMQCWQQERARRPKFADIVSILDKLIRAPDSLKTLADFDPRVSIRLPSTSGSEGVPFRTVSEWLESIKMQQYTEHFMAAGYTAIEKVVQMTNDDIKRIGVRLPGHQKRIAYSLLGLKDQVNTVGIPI

Broadly, the pIC50 is −log10 of the IC50, conventionally taken in molar units.

pIC50: −log10 of the molar value. A value given as a limit tells only on which side of the number the result lay.

The experiment deals with Epithelial Cell Kinase (ECK) (Homo sapiens, UniProt P29317). The experiment is described as follows: biochemical. The note with it: Eck IC50, pH 7.2; nonradioactive format.
Regarding `N#Cc1cnc2ccc([N+](=O)[O-])cc2c1Nc1ccc(Br)cc1` [Example 153, 4-[(4-Bromophenyl)amino]-6-nitro-3-quinolinecarbonitrile], the pIC50 is under 4.57.

Consider `C=CC(=O)Nc1ccc2ncc(C#N)c(Nc3ccc(F)c(F)c3)c2c1` [Example 154, N-{3-Cyano-4-[(3,4-difluorophenyl)amino]-6-quinolinyl]-2-propenamide], for which the pIC50 is over 7.24.

Turning to `N#Cc1cnc2ccc(N)cc2c1Nc1ccc(F)c(F)c1` [Example 155, 6-Amino-4-[(3.4-difluorophenyl)amino]-3-quinolinecarbonitrile], the pIC50 was under 4.17.

In the case of `N#Cc1cnc2ccc([N+](=O)[O-])cc2c1Nc1ccc(F)c(F)c1` [Example 156, 4-[(3,4-Difluorophenyl)amino]-6-nitro-3-quinolinecarbonitrile], the pIC50 was under 4.51.

With `CC#CC(=O)Nc1ccc2ncc(C#N)c(Nc3ccc(Sc4ccccc4)c(Cl)c3)c2c1` [Example 157], the pIC50 was under 4.37.

As for `N#Cc1cnc2ccc(N)cc2c1Nc1ccc(Sc2ccccc2)c(Cl)c1` [Example 158, 6-Amino-4-[(3-chloro-4-thiophenoxyphenyl)amino]-3-quinolinecarbonitrile], the pIC50 is under 4.30.

On to `N#Cc1cnc2ccc([N+](=O)[O-])cc2c1Nc1ccc(Sc2ccccc2)c(Cl)c1` [Example 159, 4-[(3-Chloro-4-thiophenoxyphenyl)amino]-6-nitro-3-quinolinecarbonitrile], for which the pIC50 is under 4.64.

`C=CC(=O)Nc1ccc2ncc(C#N)c(Nc3cccc(C#N)c3)c2c1` [Example 160, N-[3-Cyano-4-[(3-cyanophenyl)amino]-6-quinolinyl}-2-propenamide]: the pIC50 was over 7.23.

For `N#Cc1cccc(Nc2c(C#N)cnc3ccc(NC(=O)C#CCN4CCCCC4)cc23)c1` [Example 161, N-{3-Cyano-4-[(3-cyanophenyl)amino]-6-quinolinyl}-4-piperidino-2-butynamide], the pIC50 was under 4.34.

Take `N#Cc1cccc(Nc2c(C#N)cnc3ccc(N)cc23)c1` [Example 162, 6-Amino-4-[(3-cyanophenyl)amino]-3-quinolinecarbonitrile]: the pIC50 is under 4.46.

Consider `N#Cc1cccc(Nc2c(C#N)cnc3ccc([N+](=O)[O-])cc23)c1` [Example 163, 4-[(3-Cyanophenyl)amino]-6-nitro-3-quinolinecarbonitrile], for which the pIC50 was under 4.50.

In the case of `C#Cc1cccc(Nc2c(C#N)cnc3ccc(NC(=O)C#CC)cc23)c1` [Example 164, N-{3-Cyano-4-[(3-ethynylphenyl)amino]-6-quinolinyl}-2-butynamide], the pIC50 is under 4.24.

Turning to `C#Cc1cccc(Nc2c(C#N)cnc3ccc(NC(=O)C=C)cc23)c1` [Example 165, N-{3-Cyano-4-[(3-ethynyphenyl)amino]-6-quinolinyl)-2-propenamide], the pIC50 is under 4.23.

On to `C#Cc1cccc(Nc2c(C#N)cnc3ccc(NC(=O)C#CCN4CCCCC4)cc23)c1` [Example 166, N-{3-cyano-4-[(3-ethynylphenyl)amino]-6-quinolinyl)-4-piperidino-2-butynamide], for which the pIC50 is under 4.34.

With `C#Cc1cccc(Nc2c(C#N)cnc3ccc(N)cc23)c1` [Example 167, 6-Amino-4-[(3-ethynylphenyl)amino]-3-quinolinecarbonitrile], the pIC50 is under 4.15.

`C#Cc1cccc(Nc2c(C#N)cnc3ccc([N+](=O)[O-])cc23)c1` [Example 168, 4-[(3-Ethynylphenyl)amino]-6-nitro-3-quinolinecarbonitrile]: the pIC50 is under 4.50.

Consider `CCCN(CC#CC(=O)Nc1ccc2ncc(C#N)c(Nc3cccc(Br)c3)c2c1)CCC` [Example 170], for which the pIC50 is 4.92.

For the compound `C=C(CN1CCOCC1)C(=O)Nc1ccc2ncc(C#N)c(Nc3cccc(Br)c3)c2c1` [Example 171, N-{4-[(3-Bromophenyl)amino]-3-cyano-6-quinolinyl}-2-morpholin-4-ylmethyl-2-propenamide], the pIC50 is under 4.39.

Turning to `COc1cc2ncc(C#N)c(Nc3ccc(F)c(Br)c3)c2cc1NC(=O)C=CCN1CCOCC1` [Example 175, N-{4-[(3-Bromo-4-fluorophenyl)amino]-3-cyano-7-methoxy-6-quinolinyl}-4-morpholino-2-butenamide], the pIC50 is under 4.43.

For the compound `C=C(CC(=O)Nc1ccc2ncc(C#N)c(Nc3cccc(Br)c3)c2c1)C(=O)O` [Example 186, 4-[[4-[(3-Bromophenyl)amino]-3-cyano-6-quinolinyl]-amino]-2-methylene-4-oxo-butanoic acid], the pIC50 is under 4.65.

`CCN1CCN(CC#CC(=O)Nc2ccc3ncc(C#N)c(Nc4cccc(Br)c4)c3c2)CC1` [Example 188, N-[4-[(3-Bromophenyl)amino]-3-cyano-6-quinolinyl]-4-(N-ethylpiperazino)-2-butynamide]: the pIC50 was under 4.41.

Consider `CCN(CC)CC#CC(=O)Nc1ccc2ncc(C#N)c(Nc3ccc(F)c(Cl)c3)c2c1` [Example 189, N-[4-[(3-Chloro-4-fluorophenyl)amino]-3-cyano-6-quinolinyl]-4-diethylamino-2-butynamide], for which the pIC50 is under 4.35.

In the case of `COCC#CC(=O)Nc1ccc2ncc(C#N)c(Nc3ccc(F)c(Cl)c3)c2c1` [Example 194, N-[4-[-(3-Chloro-4-fluorophenyl)amino]-3-cyano-6-quinolinyl]-4-methoxy-2-butynamide], the pIC50 is under 4.31.

Regarding `COc1cc2ncc(C#N)c(Nc3ccc(F)c(Cl)c3)c2cc1N` [Example 202, 6-Amino-4-(3-chloro-4-fluoro-phenylamino)-7-methoxy-quinoline-3-carbonitrile], the pIC50 was under 4.23.

For the compound `CCN(CC)CC=CC(=O)Nc1cc2c(Nc3ccc(F)c(Br)c3)c(C#N)cnc2cc1OC` [Example 209, 4-Diethylamino-but-2-enoic acid [4-(3-bromo-4-fluorophenylamino)-3-cyano-7-methoxy-quinolin-6-yl]-amide], the pIC50 was under 4.42.

Consider `COc1cc2ncc(C#N)c(Nc3cccc(Br)c3)c2cc1NC(=O)C#CCN(C)C` [Example 227, 4-Dimethylamino-but-2-ynoic acid [4-(3-bromo-phenylamino)-3-cyano-7-methoxy-quinol-6-yl]-amide], for which the pIC50 is under 4.38.

Take `COc1cc2ncc(C#N)c(Nc3ccc(Cl)cc3F)c2cc1OC` [Example 228, 4-(4-Chloro-2-fluoro-phenylamino)-6,7-dimethoxy-quinoline-3-carbonitrile]: the pIC50 is under 4.25.

Regarding `COc1cc2c(Nc3cccc(N(C)C)c3)c(C#N)cnc2c(OC)c1OC` [Example 232, 4-(3-Dimethylamino-phenylamino)-6.7.8-trimethoxy-quinoline-3-carbonitrile], the pIC50 was under 4.28.

With `COc1ccc(OC)c2c(Nc3ccc(C)c(O)c3)c(C#N)cnc12` [Example 239, 4-(3-Hydroxy-4-methyl-phenylamino)-5,8-dimethoxy-quinoline-3-carbonitrile], the pIC50 was under 4.53.

`COc1ccc(OC)c2c(Nc3cccc(Br)c3)c(C#N)cnc12` [Example 240, 4-(3-Bromo-phenylamino)-5.8-dimethoxy-quinoline-3-carbonitrile]: the pIC50 was under 4.58.

Regarding `COc1ccc(OC)c2c(Nc3cccc(N(C)C)c3)c(C#N)cnc12` [Example 242, 4-(3-Dimethylamino-phenylamino)-5,8-dimethoxy-quinoline-3-carbonitrile], the pIC50 is under 4.54.

Take `COc1ccc(OC)c2c(Nc3cc(O)c(Cl)cc3F)c(C#N)cnc12` [Example 243, 4-(4-Chloro-2-fluoro-5-hydroxy-phenylamino)-5,8-dimethoxy-quinoline-3-carbonitrile]: the pIC50 is under 4.57.

Turning to `COc1cc2ncc(C#N)c(Nc3ccc(O)c(Cl)c3)c2cc1OC` [Example 249, 4-(3-Chloro-4-hydroxy-phenylamino)-6,7-dimethoxy-quinoline-3-carbonitrile], the pIC50 is under 4.55.

As for `CCOc1cc2ncc(C#N)c(Nc3ccc(Sc4ccccc4)c(Cl)c3)c2cc1OCC` [Example 254, 4-[3-Chloro-4-(phenylthio)phenylamino]-6,7-diethoxy-3-quinolinecarbonitrile], the pIC50 was under 4.68.

Turning to `COc1cc2ncc(C#N)c(Nc3ccc(Sc4ccccc4)c(Cl)c3)c2cc1OC` [Example 255, 4-[3-Chloro-4-(phenylthio)phenylamino]-6,7-dimethoxy-3-quinolinecarbonitrile], the pIC50 was under 4.35.

Regarding `CCOc1cc2ncc(C#N)c(Nc3ccc(F)c(Cl)c3)c2cc1OCC` [Example 256, 4-(3-Chloro-4-fluorophenylamino)-6,7-diethoxy-3-quinolinecarbonitrile], the negative logarithm of the IC50 (pIC50) was under 4.29.

On to `CCOc1cc2ncc(C#N)c(Nc3cccc(C(C)=O)c3)c2cc1OCC` [Example 257, 4-(3-acetylphenylamino)-6,7-diethoxy-3-quinolinecarbonitrile], for which the negative-log IC50 (pIC50) is under 4.27.

On to `CCOc1cc2ncc(C#N)c(N(C)c3ccccc3)c2cc1OCC` [Example 258, 4-(N-Methylphenylamino)-6,7-diethoxy-3-quinolinecarbonitrile], for which the pIC50 is under 4.54.

For `CCOc1cc2ncc(C#N)c(Nc3ccccc3)c2cc1OCC` [Example 259, 4-(Phenylamino)-6,7-diethoxy-3-quinolinecarbonitrile], the pIC50 was under 4.52.

Take `CCOc1cc2ncc(C#N)c(Nc3ccc(F)cc3)c2cc1OCC` [Example 260, 4-(4-fluorophenylamino)-6,7-diethoxy-3-quinolinecarbonitrile]: the negative-log IC50 (pIC50) is under 4.55.

Take `COc1cc2ncc(C#N)c(Nc3cccc(N)c3)c2cc1OC` [Example 264, 4-(3-Aminophenylamino)-6,7-dimethoxy-3-quinolinecarbonitrile]: the pIC50 is under 4.20.

For `COc1cc2ncc(C#N)c(Nc3cccc(NC(C)=O)c3)c2cc1OC` [Example 265, 4-(3-Acetamidophenylamino)-6,7-dimethoxy-3-quinolinecarbonitrile], the pIC50 is under 4.26.

On to `CC#CC(=O)Nc1cccc(Nc2c(C#N)cnc3cc(OC)c(OC)cc23)c1` [Example 266, 4-[3-(2-Butynoylamino)phenylamino]1-6,7-dimethoxy-3-quinolinecarbonitrile], for which the pIC50 was 4.29.

As to `COc1cc2ncc(C#N)c(Nc3cccc(CCl)c3)c2cc1OC` [Example 268, 4-[3-(Chloromethyl)phenylamino]-6,7-dimethoxy-3-quinolinecarbonitrile], the pIC50 was under 4.25.
